Earlier results in paper PMC3400037, “Application of a single-objective, hybrid genetic algorithm approach to pharmacokinetic model building” (Journal of Pharmacokinetics and Pharmacodynamics, 2012).

Conditions: final stepwise model; oral; cited from earlier work

Structure (SMILES): CN(C)CCC[C@@]1(c2ccc(F)cc2)OCc2cc(C#N)ccc21 [Escitalopram, escitalopram]
- Inter-individual variability—ωCL of ηCL: 48.5 % (15.1 %)
